Measurements from US11220482B2, “Aminopyridinemethanol compounds and their use” (UNIVERSITE AMIENS PICARDIE JULES VERNE, priority 2017, dated 2022).

Legend:
[1] = system: CHO-K1 cells
[2] = system: CHO-K1 cells; assay: In vitro micronucleus assay, short-term exposure; settings: without S9 mix, positive control 0.6 μg/mL
[3] = system: CHO-K1 cells; remark: listed apart in the source
[4] = system: CHO-K1 cells; assay: In vitro micronucleus assay, long-term exposure; settings: long-term (24 h), without S9 mix, positive control 0.6 μg/mL

With CO[C@@]12[C@H](COC(N)=O)C3=C(C(=O)C(C)=C(N)C3=O)N1C[C@@H]1N[C@@H]12 [Mitomycin C, mitomycin C] the “MNC1 (micronucleated cell rate)” value [1] was 28 ‰, the “MNC2 (micronucleated cell rate)” value [1] was 32 ‰ and the “MNC-M (mean of micronucleated cell rates)” value (“MNC-M” below) [1] was 30 ± 2.8 ‰. The “BI (binucleated cells)” value [2] was 452, the “MNC2 (micronucleated cell rate)” value [2] was 32 ‰ and the “MNC-M” value [2] was 30 ± 2.8 ‰. For the same molecule, the “MONO (mononucleated cells)” value [2] was 48, the “MNC1 (micronucleated cell rate)” value [3] was 28 ‰ and the “MNC2 (micronucleated cell rate)” value [3] was 32 ‰. For the same molecule, the “BI (binucleated cells)” value [4] was 448, the “MNC1 (micronucleated cell rate)” value [4] was 28 ‰ and the “MNC-M” value [4] was 30 ± 2.8 ‰. The “MONO (mononucleated cells)” value [4] was 52.

Where two headings read alike, the source gives them in different places.
